Literature values, collected in patent US20050267009A1, “Method of Treatment of Acute and Persistent Pain” (priority 2004, published 2005).

Test system: chronic neuropathic pain
Details: rat CCI, intrathecal

## recombinant human IL-2: recombinant human IL-2
  antinociceptive effect (paw-withdrawal latency): dose-dependent antinociceptive effect
  duration of antinociceptive effect: 10 to 25 min
